## Antibody variant affinities, Ab-14 heavy chain, assay B

Source: Li et al. 2023 (doi:10.1038/s41467-023-39022-2), MIT Lincoln Laboratory and A-Alpha Bio; data file from the FLAb repository.

Antigen: PDVDLGDISGINAS, a 14-residue peptide of the SARS-CoV-2 spike HR2 region.

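The parent was found by panning a naive human phage display library on the peptide. Designed CDR sequences, proposed from the first random library and measured here. Several design methods are mixed in this list. AlphaSeq pools MATa yeast showing the antibodies with MATalpha yeast showing the peptide. Pairs that bind mate more often; barcode pairs of the diploids are counted by sequencing. A regression on co-assayed BCL2-family reference pairs converts the normalised counts of each replicate to an apparent Kd. There are six technical replicates.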

The variants keep the light chain, the linker and the frameworks of Ab-14 (scFv order VH, a (GGGGS)3 linker, VL).
VH: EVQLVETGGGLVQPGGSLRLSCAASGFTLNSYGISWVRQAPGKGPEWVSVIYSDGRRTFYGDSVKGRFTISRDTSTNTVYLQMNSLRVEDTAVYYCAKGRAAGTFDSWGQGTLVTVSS
VL: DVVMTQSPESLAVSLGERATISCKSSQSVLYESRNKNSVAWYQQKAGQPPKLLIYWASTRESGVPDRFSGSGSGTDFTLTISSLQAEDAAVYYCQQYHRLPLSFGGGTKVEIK

Each variant is given by its three heavy chain CDRs, as the data file delimits them; those of the parent are GFTLNSYGIS, VIYSDGRRTFYGDSVK, GRAAGTFDS. This list holds designs with at most six substitutions. The Kd shown is the geometric mean over detected replicates; a lower Kd is a better binder. A pair that was not seen in any replicate is written "nd"; this usually means weak binding, but a binder can also be missed. The parent sequence was in this pool as ten entries: three were never detected, three once, and four in most replicates, with averages from 2.2 nM to 240 nM. In the paper, a design with two or fewer of six values counts as a poor binder. Nonspecific signal, from three strains lacking the peptide, appeared in 1% of pairings of all heavy chain designs, centred on 120 nM (5% of these signals below 7.0 nM); values are not corrected for it. Also given: how often the same scFv was detected with the empty control strains. Values of this round are not directly comparable with the first-round values of the same sequences.

Variant GFGLNSYGIS | VIYSDGLRTFYSDFVK | GRAAGFFDS showed nd (0 of 6 replicates; controls 0 of 18). Variant GFTMNSYGIS | VIYSDHRRTFYDDSVK | GQTAGTFDS gave nd (0 of 6 replicates; controls 0 of 18). Variant GFVLNEYGIS | VIYSDGRRTFYADSVK | GRAAGTFDK showed 4.8 nM (6 of 6 replicates; controls 0 of 18). Variant GFSLNSYGIS | VIYSDGRRTFYADHVK | GNAAGTFDK showed nd (0 of 6 replicates; controls 1 of 18). For GFTLNDYGIS | VIYSDGRRTFYGDSRK | GRAALTFIS, the assay gave nd (0 of 6 replicates; controls 0 of 18). With GFTLNEYGIS | VIYSDGRRTFYSDSVK | GHAAGTFDN the result was 1.3 nM (6 of 6 replicates; controls 0 of 18). For GFWLNSYGIS | VIYSDGRRTFYGDSVK | GRAAGTFDS, the assay gave 220 nM (2 of 6 replicates; controls 0 of 18). With GFTLNSYGIS | VIYSDGRRTFYTDSVK | GRAAGEFDS the result was nd (0 of 6 replicates; controls 0 of 18).

With GFDLNSYGIS | VIYSDGRRTAYGDHVK | GRTAGTFDS the result was 3.1 nM (6 of 6 replicates; controls 1 of 18). Variant GFTLNQYGIS | VIYSDGRRTFYSDSAK | GRAAGFGDS showed nd (0 of 6 replicates; controls 1 of 18). Variant GPTLNSYSIS | VIYSDGRRTFYGDSVK | GEQAGSFDT showed nd (0 of 6 replicates; controls 0 of 18). With GFTLESYGIS | VIYSDGRRTFYADQVK | GRAAGTFDS the result was 36 nM (6 of 6 replicates; controls 2 of 18). With QFDLNSYGIS | VIYSDGRRTFYIDSVK | GNAAGTFDS the result was 25 nM (6 of 6 replicates; controls 0 of 18). For KFDLNSYGIS | VIYSDGRRTFYGDSVK | GQTAGTFDS, the assay gave 18 nM (1 of 6 replicates; controls 0 of 18). Variant GFDLNSYGIS | VIYSDGRRTFYRDSVK | GQLAGTFDS showed 6.9 nM (5 of 6 replicates; controls 0 of 18). Variant GFDLNEYGIS | VIYADGLRTFYTDSVK | GEAAGTFDS gave 230 pM (6 of 6 replicates; controls 0 of 18).

Variant GFTLNSYGIS | VIYSDGRRTFYSDSVK | GRWAGSFHS showed 230 nM (1 of 6 replicates; controls 0 of 18). For GHTLDSYGIT | VIYSDGRRTFYGDSKK | GRAAGTALS, the assay gave nd (0 of 6 replicates; controls 0 of 18). Variant GFTLNSYGIS | VIYSDGRRTFYGDSVK | GRNPGTFDS gave 620 nM (2 of 6 replicates; controls 1 of 18). Variant GFNLNSYGIS | VIYSDGRRTFYGDSVK | GREAGTFDK showed 2.1 nM (6 of 6 replicates; controls 0 of 18). For GFTLNSYGIS | VIYSDGRRTFYGDSVK | SRAAGTFDA, the assay gave nd (0 of 6 replicates; controls 0 of 18). With GFDLNSYGIS | VIYSDGRRTFYADSVK | GKAAGTFDD the result was 1.1 nM (6 of 6 replicates; controls 1 of 18). With GFQLNSYGIS | VIYSDGRRTFYADKVK | GRQAGTFDS the result was 25 nM (6 of 6 replicates; controls 0 of 18). Variant GFTLNDYGIS | VIYSDGWRTQYIDSVK | GRAAGTFDS gave 21 µM (1 of 6 replicates; controls 0 of 18).

For GFTLNSYGIS | VIYSDGRRTFYANSVK | GEAMGTFDS, the assay gave nd (0 of 6 replicates; controls 1 of 18). For GFTLNDYGIS | VIYSDGRRTFYVDSVK | GRAAGTFDS, the assay gave nd (0 of 6 replicates; controls 0 of 18). Variant GFDLNDYGIS | VIYSDGRRTFYGDSVK | GRAAGTFHS showed nd (0 of 6 replicates; controls 0 of 18). Variant GFDLNEYGIS | VIYADGQRTFYADSVK | GEAAGTFDS gave 110 pM (6 of 6 replicates; controls 0 of 18). With GFTLDQYGIS | VIYSDGRRTFYTDSVK | GRAAGTFDS the result was 480 pM (6 of 6 replicates; controls 0 of 18). Variant GFTLSSYGIS | VIYSDGRRTFYGDSVK | GRAAGTFRS showed nd (0 of 6 replicates; controls 0 of 18). Variant GFNLNNYGIS | VIYSDGRRTFYGDSVK | GRNAGTFDS showed 6.3 nM (6 of 6 replicates; controls 0 of 18). With GFTLNEYGVS | VIYSDGRRTFYIDSVK | GAEAGTFDS the result was nd (0 of 6 replicates; controls 0 of 18).

Variant GFSLNSYGIS | VIYSDGRRTFYADRVK | GQTAGTFDS gave 6.8 nM (4 of 6 replicates; controls 0 of 18). With GFTLNSYGIS | VPYADDIRTFYGDSVK | GRAAGTNKS the result was nd (0 of 6 replicates; controls 0 of 18). With GFSLNSYGIS | VIYSDGRRTFYQDRVK | GEAAGTFDT the result was 9.2 nM (5 of 6 replicates; controls 0 of 18).

The 2 strongest on average among those seen in every replicate, once more:

CDR-H1,CDR-H2,CDR-H3,Kd (apparent),seen in,signal with controls
GFDLNEYGIS,VIYADGQRTFYADSVK,GEAAGTFDS,110 pM,6 of 6,0 of 18
GFDLNEYGIS,VIYADGLRTFYTDSVK,GEAAGTFDS,230 pM,6 of 6,0 of 18